pKd: −log10 of the molar value. Read-outs that look alike come from different tables or passages of the source.
Assays:
Experiment in all cases: AUC
[1] = target: UNC-5B soluble extracellular domains (aa 25-300) labelled with Alexa Fluor 488 (UniProt Q8K1S3)
[2] = target: Gallus gallus NET-1 with truncated C-terminal domain (aa 26-458) (Gallus gallus) (UniProt Q90922)
[3] = target: UNC-5B soluble extracellular domains (aa 25-300) labelled with Alexa Fluor 488 (UniProt Q8K1S3); remark: listed apart in the source
[4] = target: Gallus gallus NET-1 with truncated C-terminal domain (aa 26-458) (Gallus gallus) (UniProt Q90922); remark: listed apart in the source

- stoichiometry N [1]: 1
- pKd [2]: 4.75
- stoichiometry N [3]: 1
- pKd [4]: 3.86
Substance: Gallus gallus NET-1 with truncated C-terminal domain (aa 26-458) (from UniProt Q90922 26-458) (ligand)
